{"source": "patent US7659252B2", "about": "“Transdermal delivery peptides and method of use thereof” (Novomed Technologies, Inc. (Shanghai), priority 2005, dated 2010)", "key": {"Male Wistar rats": {"system": "Male Wistar rats", "assay": "Phage delivery across trimmed abdominal skin, phage titre in tail-vein blood", "format": "in vivo, rat", "conditions": "10^12 pfu, 1 hour post topical administration", "protocol": "Phage delivery: Male Wistar rats (180 g to 220 g) were housed at a constant temperature (22° C.) and relative humidity (60%) with a fixed 12 hr. light/dark cycle, and free access to food and water. While the animals were anesthetized with Vrethane (5 ml/kg of 20% solution), the hair in an area of approximately 3.0 cm×3.0 cm on the abdomen was carefully trimmed using scissors, with caution not to damage the skin (rats with any visible sign of skin damage were not used). […] One hour after the phage administration blood was withdrawn from the tail vein and immediately assayed for phage titre according to manufacturer's protocol."}, "[1]": {"system": "dexamethasone-treated rats", "assay": "Transdermal delivery of human growth hormone, serum hGH by ELISA", "format": "in vivo, rat", "conditions": "for hGH in the systemic circulation: 500 μg hGH co-administered with peptide (TD-1 100 or 500 μg; AP-1 100 μg)", "protocol": "Growth hormone delivery: To assess whether TD-1 can deliver a different protein drug, a recombinant human growth hormone (hGH, 500 μg) and TD-1 were co-administered at two different doses to the abdominal skin of Wistar rats, which had been treated with dexamethasone (12.5 mg/kg) for two days. In particular, male Wistar rats were given daily subcutaneous injection of dexamethasone (12.5 mg/kg; Sigma). After 2 days of treatment they were randomly assigned to different treatment groups, with 3 to 4 rats for each group. […] After the co-administration, blood was drawn from the rat tail vein at various time points: 0, 2, 5, and 8 hours, and the amount of growth hormone in the serum was assayed using ELISA (Diagnostic Systems Laboratories, Webster, Tex.). The various groups were compared to the saline+hGH group on each time point, using independent samples t-test."}, "[2]": {"system": "streptozotocin-induced diabetic rats", "assay": "Transdermal insulin delivery: serum insulin and blood glucose", "format": "in vivo, rat", "conditions": "for Serum Insulin Mean: 5 hr value minus 0 hr value, 500 μg peptide + 70 μg insulin topical; for transdermal efficiency of insulin after TD-1 pre-treatment (serum insulin): TD-1 5 min, washed off", "protocol": "(§1) Insulin delivery: In particular, male Wistar rats were given intraperitoneal injection of straptozotocin (60 mg/kg; Sigma-Aldrich, St. Louis, […].) to make these rats in diabetic states. Seven to 10 days post injection blood glucose level was measured using One-Touch Ultra Glucometer (LifeScan, Milpitas, Calif.). The straptozocin-induced (SD-induced) diabetic rats with blood glucose level of over 20 mmol/l (normal rats are between 4 and 6 mmol/l) were selected and randomly assigned to different treatment groups, with 6 rats for each group. […] The SLA/PP is a chemical enhancer combination recently identified from high-throughput screening (Karande et al., […], Nature Biotech. 22:192). Moreover, in other transdermal treatment groups, 100 μl saline was given to each rat in that group. For the subcutaneous treatment group, 14 μg of insulin per rat was injected.\nBlood was drawn from the rat tail vein at these time points and assayed for blood glucose as described above and serum insulin by radioimmunoassay (Immunotech, Czech).\nBlood glucose and serum insulin were measured before and 5 hrs. after the administration as described above."}, "[3]": {"assay": "Octanol-water partition coefficient", "format": "physicochemical", "conditions": "25° C., HPLC", "protocol": "Determination of octanol-water partition coefficient: n-Octanol and water were presaturated with each other by vigorous mixing and letting to stand at 25° C. for 24 h. 10 mg of TD-1 was transferred to a 15-ml screw-capped centrifuge tube, and pre-saturated octanol and water (2.5 ml each) were added. The mixture was vigorously shaken for 10 min, let to stand at 25° C. for 12 h, and then centrifuged (400 g, 10 min) to achieve good separation of two phases. TD-1 concentrations in the two phases were determined by HPLC and used to compute log Pow. For HPLC, a 250×4.6 mm reverse C18 analytical column (COSMOSIL) was used with the mobile phase consisting of 30% acetonitrile/O/1% TFA and 70% water/0.1% TFA and a flow rate of 1 ml/min with an injection loop of 20 μl. Detection was at 230 nm."}, "[4]": {"assay": "DLS measurements of insulin with or without TD-1", "format": "physicochemical", "conditions": "pH 2.0, 3.0 and 7.0", "protocol": "DLS measurements: To determine whether TD-1 mediates skin penetration by altering the molecular form of insulin, dynamic light-scattering studies (DLS) were performed. In particular, insulin (1 mg), with or without TD-1 (2.5 mg), was solubilized in 500 ml of saline in small scintillation glass vials and the pH was adjusted to 2.0 or 3.0 with 1 M HCl and 7.0 with 1 M NaOH. The solutions were transferred to a centrifuge tube and spun for 10 min at 10000 rpm. 40 μl of the supernatant were filtered by ANODISC™ membrane filter with a pore size of 0.02 μm (Whatman International, Maidstone, UK) and taken for DLS measurement using DynaPro™ MS 800 (Wyatt technology Corporation/Protein Solutions, Santa Barbara, Calif.)."}, "anesthetized Wistar rats": {"system": "anesthetized Wistar rats", "assay": "^125I-insulin transdermal delivery, radioactivity in whole blood", "format": "in vivo, rat", "conditions": "co-administered with 4, 8 or 16 μg TD-1", "protocol": "as §1"}, "[5]": {"conditions": "500 μg TD-1 + 70 μg porcine insulin, topical"}}, "data": [{"sequence": "ACNATLPHQCG [AP-1, reference compound]", "values": [{"measurement": "average titre in blood", "setting": "Male Wistar rats", "result": "no infective phage particles detected"}, {"measurement": "hGH in the systemic circulation", "setting": "[1]", "result": "undetetable"}]}, {"sequence": "ACSASPSKHCG [TD-24]", "values": [{"measurement": "Serum Insulin Mean", "setting": "[2]", "result": 0.7442, "unit": "ng/mL"}]}, {"sequence": "ACSSSASKHCG [TD-3]", "values": [{"measurement": "Serum Insulin Mean", "setting": "[2]", "result": 0.4017, "unit": "ng/mL"}]}, {"sequence": "ACSSSPAKHCG [TD-6]", "values": [{"measurement": "Serum Insulin Mean", "setting": "[2]", "result": 1.6198, "unit": "ng/mL"}]}, {"sequence": "ACSSSPSAHCG [TD-22]", "values": [{"measurement": "Serum Insulin Mean", "setting": "[2]", "result": 0.7939, "unit": "ng/mL"}]}, {"sequence": "ACSSSPSDHCG [TD-4]", "values": [{"measurement": "Serum Insulin Mean", "setting": "[2]", "result": 0.7765, "unit": "ng/mL"}]}, {"sequence": "ACSSSPSKACG [TD-23]", "values": [{"measurement": "Serum Insulin Mean", "setting": "[2]", "result": 1.0422, "unit": "ng/mL"}]}, {"sequence": "ACSSSPSKHCG [TD-1]", "values": [{"measurement": "octanol/water partition coefficient (log Pow)", "setting": "[3]", "result": "−3.03"}, {"measurement": "time at which elevated serum insulin was detectable", "setting": "[2]; [5]", "result": 2, "unit": "h"}, {"measurement": "time of return of serum insulin to basal level", "setting": "[2]; [5]", "result": 11, "unit": "h"}, {"measurement": "time of serum insulin peak", "setting": "[2]; [5]", "result": 5, "unit": "h"}, {"measurement": "lowering of transdermal efficiency at pH 7.0 compared with the pH 3.0 group", "setting": "[2]; 500 μg TD-1 + 200 μg insulin, 5 hr", "result": "about 20%"}, {"measurement": "Serum Insulin Mean", "setting": "[2]", "result": 3.9224, "unit": "ng/mL"}, {"measurement": "transdermal efficiency of insulin after TD-1 pre-treatment (serum insulin)", "setting": "[2]; no waiting period before insulin", "result": "about the same as that observed under the TD-1 and insulin co-administration"}, {"measurement": "transdermal efficiency of insulin after TD-1 pre-treatment (serum insulin)", "setting": "[2]; waiting period 15 minutes or more", "result": "dramatically decreased"}, {"measurement": "transdermal efficiency of insulin after TD-1 pre-treatment (serum insulin)", "setting": "[2]; waiting time 5 minutes", "result": "significant amount of insulin to reach blood circulation"}, {"measurement": "transdermal efficiency of insulin (serum insulin)", "setting": "[2]; pH 2.0, 500 μg TD-1 + 200 μg insulin, 5 hr", "result": "2.95 to 3.84", "unit": "ng/mL"}, {"measurement": "transdermal efficiency of insulin (serum insulin)", "setting": "[2]; pH 3.0, 500 μg TD-1 + 200 μg insulin, 5 hr", "result": "2.85 to 3.42", "unit": "ng/mL"}, {"measurement": "transdermal efficiency of insulin (serum insulin)", "setting": "[2]; pH 7.0, 500 μg TD-1 + 200 μg insulin, 5 hr", "result": "2.08 to 2.45", "unit": "ng/mL"}, {"measurement": "effect on the apparent molecular weights of insulin", "setting": "[4]", "result": "did not significantly alter"}, {"measurement": "delivery of ^125I-insulin to whole blood", "setting": "anesthetized Wistar rats", "result": "effective"}, {"measurement": "time at which significant ^125I in whole blood was detectable", "setting": "anesthetized Wistar rats", "result": 2, "unit": "h"}, {"measurement": "time at which significant amounts of hGH were achieved", "setting": "[1]; 500 μg hGH + 100 or 500 μg TD-1", "result": 2, "unit": "h"}, {"measurement": "hGH in the systemic circulation", "setting": "[1]", "result": "enabled hGH to reach systemic circulation"}, {"measurement": "hGH delivery, 100 μg TD-1 compared with 500 μg TD-1", "setting": "[1]; 500 μg hGH, 100 μg TD-1", "result": "more effective than 500 μg TD-1"}]}, {"sequence": "ACSSSSSKHCG [TD-10]", "values": [{"measurement": "Serum Insulin Mean", "setting": "[2]", "result": 3.4505, "unit": "ng/mL"}]}, {"sequence": "CSSSPSKHC [TD-2]", "values": [{"measurement": "Serum Insulin Mean", "setting": "[2]", "result": 1.7480, "unit": "ng/mL"}]}]}
